This note sets out measurements from ChEMBL document CHEMBL1150265, “(3R,5S,E)-7-(4-(4-fluorophenyl)-6-isopropyl-2-(methyl(1-methyl-1h-1,2,4-triazol-5-yl)amino)pyrimidin-5-yl)-3,5-dihydroxyhept-6-enoic acid (BMS-644950): a rationally designed orally efficacious 3-hydroxy-3-methylglutaryl coenzyme-a reductase inhibitor with reduced myotoxicity potential” (J Med Chem, 2008).

For this series, the species on record is Homo sapiens. Put plainly: Metabolic stability in human assessed as hepatic extraction. It counts as ADME, organism-based. To be noted: in vivo.

As for `CC(C)c1c(C(=O)Nc2ccccc2)c(-c2ccccc2)c(-c2ccc(F)cc2)n1CC[C@@H](O)C[C@@H](O)CC(=O)O` [ATORVASTATIN], the Activity was greater than 70%.
